Target: T1, Aurora kinase A (Homo sapiens, UniProt O14965)
T1 sequence (O14965 whole entry): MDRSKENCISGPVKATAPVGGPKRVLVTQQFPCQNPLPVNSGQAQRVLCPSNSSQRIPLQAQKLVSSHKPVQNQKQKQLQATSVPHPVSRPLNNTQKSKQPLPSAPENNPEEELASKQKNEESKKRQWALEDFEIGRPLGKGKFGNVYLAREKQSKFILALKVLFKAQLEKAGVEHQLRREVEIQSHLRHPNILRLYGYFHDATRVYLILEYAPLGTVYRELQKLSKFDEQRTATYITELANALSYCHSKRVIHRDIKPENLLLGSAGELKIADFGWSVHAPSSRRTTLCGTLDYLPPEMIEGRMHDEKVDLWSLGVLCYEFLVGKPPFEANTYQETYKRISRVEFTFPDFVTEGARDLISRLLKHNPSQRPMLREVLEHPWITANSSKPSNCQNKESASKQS
Test: Aurora Kinase SPA Assay
Conditions: pH 7; 22 °C
Method: The biochemical activity of compounds was determined by incubation with Aurora A and substrates in the presence ATP/[gamma-33P] ATP. After incubation, the reaction was stopped and the phosphorylated substrate was separated from nonincorporated radioactive ATP using SPA beads (Amersham Pharmacia Biotech), counted using TopCount (Packard) to measure substrate-incorporated phosphate.

An IC50 of 140 nM was found for `CNC(=O)c1ccc(Nc2ncc(Br)s2)cc1` [4-[(5-bromo-1,3-thiazol-2-yl)amino]-N-methylbenzamide] in this work.

Reference: BindingDB's records for doi:10.1021/cb700200w (Novartis, 2008)
